PubChem AID 2061109: pyroptosis screen in mouse bone marrow macrophages, one dose (5 µM).
Target pathway: NLRP3 inflammasome, triggered by LPS and nigericin. Dead cells counted by propidium iodide.
Higher is more protection: 100% equals untreated cells, 0% the stimulated control, negative values set to 0. Active call (*): above 70%. Part of the library is listed.

| compound | inhibition (%) |
|---|---|
| CC(C)ON(CC(=O)NO)S(=O)(=O)c1ccc(-c2ccccc2)cc1 | 0.0 |
| CCS(=O)(=O)c1ccc(CC(=O)Nc2cc(Cl)c(-c3ccccc3OC(F)(F)F)c(Cl)c2)cc1 | 0.0 |
| COc1ccc(C2(CNC(=O)c3ccc(NC(=O)c4ccco4)cc3)CCOCC2)cc1 | 12.0 |
| Cl.Nc1nc(NCC2CCC(CNS(=O)(=O)c3cccc4ccccc34)CC2)nc2ccccc12 | 0.0 |
| CC(C)c1cccc(C(C)C)c1NC(=O)Nc1ccc(Sc2ccc([N+](=O)[O-])cc2)cc1 | 20.4 |
| CCN(Cc1cc(C(F)(F)F)ccc1-c1cc(CC(=O)O)ccc1OC)C(=O)NCc1ccccc1 | 0.0 |
| COc1ccc2c(OCc3nnc4ccc(-c5ccccc5)nn34)ccnc2c1 | 73.2* |
| C[C@@H]1C[C@H]2[C@@H]3CCC4=CC(=O)C=C[C@]4(C)[C@@]3(F)[C@@H](O)C[C@]2(C)[C@@]1(O)C(=O)CO | 0.0 |
| Cl.Cl.O=C(O)COCCN1CCN([C@H](c2ccccc2)c2ccc(Cl)cc2)CC1 | 71.6* |
| O=c1cc2c(=O)oc3cc(O)c(O)oc3c2c(O)c1O | 44.3 |
| CC1(C)CCN(CCOc2ccc3[nH]ccc3c2)c2ccc(-c3cccnc3)cc21 | 77.4* |
| CCOC(=O)N1CCC(NS(=O)(=O)c2ccc(NC(=O)c3ccccc3C)c3ccccc23)CC1 | 29.1 |
| CN1CCC(c2cc(-c3ccncc3)c(-c3ccc(F)cc3)[nH]2)CC1 | 0.0 |
| Cn1c(=O)c2c(ncn2CCCN2CCC(OC(c3ccccc3)c3ccccc3)CC2)n(C)c1=O | 49.3 |
| NS(=O)(=O)c1ccc(N2N=C(C(F)(F)F)CC2c2c[nH]c3c(Cl)cccc23)cc1 | 0.0 |
| O=C(Cc1ccc(O)cc1)N1CCc2c([nH]c3ccccc23)C1 | 0.0 |
| O=C1C[C@@H](c2ccc(O)cc2)Oc2cc(O[C@@H]3O[C@H](CO)[C@@H](O)[C@H](O)[C@H]3O)cc(O)c21 | 51.0 |
| Cl.Cl.OCCOCCN1CCN(C(c2ccccc2)c2ccccc2)CC1 | 0.0 |
| CNc1c(C)n(C)n(-c2ccccc2)c1=O | 0.0 |
| CCC(N)(C(=O)O)c1ccc(C(=O)O)cc1 | 48.6 |
| COc1ccc(-c2c(Cl)ncn2-c2ccc(S(N)(=O)=O)cc2)cc1F | 49.9 |
| Cc1cc(C(=O)Nc2cccc(C(=O)Nc3cccc(C(F)(F)F)c3)c2)on1 | 63.1 |
| CC(C)C[C@H](NC(=O)[C@H](Cc1ccccc1)NC(=O)c1cnccn1)B(O)O | 0.0 |
| O=C(N/N=C/c1c(O)ccc2ccccc12)c1ccccc1O | 0.0 |
| COC(=O)Nc1nc2ccc(C(=O)c3cccs3)cc2[nH]1 | 14.4 |
| COc1ccc2[n-]c(S(=O)Cc3ncc(C)c(OC)c3C)nc2c1.COc1ccc2[n-]c(S(=O)Cc3ncc(C)c(OC)c3C)nc2c1.O.O.O.[Mg+2] | 69.3 |
| O.O=C([O-])CC(O)(CC(=O)[O-])C(=O)[O-].[K+].[K+].[K+] | 80.2* |
| CNC(=O)O[C@@H]1CCC[C@H]1[C@@]1(C2CCN(CC3CN(c4ccc(S(=O)(=O)c5ccncc5)cc4)C3)CC2)CN(C)Cc2ccccc21 | 2.8 |
| COc1ccc(OC)c(-c2ccc(NC(=O)c3ccncc3F)cc2)c1 | 0.0 |
| CC[C@@]1(O)C(=O)OCc2c1cc1n(c2=O)Cc2cc3c([N+](=O)[O-])cccc3nc2-1 | 0.0 |
| CCn1c(-c2nc3cc(C(=O)N4CCC[C@@H](N)C4)cc(OC)c3n2C)cc2cccnc21.Cl | 0.0 |
| COc1ccc2c(c1)c(C(=O)Nc1cc(C(=O)OC(C)(C)C)ccc1F)cn2C(C)=O | 68.3 |
| CCOC(=O)/C=C/c1ccc(O)cc1 | 0.0 |
| CC1(C)CC[C@]2(C(=O)O[C@@H]3O[C@H](CO)[C@@H](O)[C@H](O)[C@H]3O)CC[C@]3(C)C(=CC[C@@H]4[C@@]5(C)CC[C@H](O[C@@H]6O[C@H](C(=O)O)[C@@H](O)[C@H](O)[C@H]6O[C@@H]6O[C@H](CO)[C@@H](O)[C@H](O)[C@H]6O)C(C)(C)[C@@H]5CC[C@]43C)[C@@H]2C1 | 17.8 |
| O=c1cc(CO)occ1O | 0.0 |
| CNCCCN1c2ccccc2CCc2ccccc21.Cl | 0.0 |
| CCN1C[C@]2(COC)CC[C@H](OC)[C@]34C1[C@H](C[C@H]23)[C@@]1(O)C[C@H](OC)[C@H]2C[C@@H]4[C@@H]1[C@H]2O | 62.2 |
| COc1ccc2c(c1)C(c1ccc(F)cc1)=C(CN1CCCC1)CO2.Cl | 53.4 |
| O=C(O[C@@H]1Cc2c(O)cc(O)cc2O[C@@H]1c1cc(=O)c(O)c2c(O)c(O)cc([C@H]3Oc4cc(O)cc(O)c4C[C@H]3OC(=O)c3cc(O)c(O)c(O)c3)c2c1)c1cc(O)c(O)c(O)c1 | 52.3 |
| COc1ccc2[nH]c(C(=O)N3CCC(CC(C)(C)O)CC3)cc2c1 | 61.1 |
| COC(=O)[C@@]1(C)CC[C@]2(C(=O)O)CC[C@]3(C)C(=CC[C@@H]4[C@@]5(C)C[C@H](O)[C@H](O[C@@H]6OC[C@@H](O[C@@H]7O[C@H](CO)[C@@H](O)[C@H](O)[C@H]7O)[C@H](O)[C@H]6O)[C@@](C)(CO)[C@@H]5CC[C@]43C)[C@@H]2C1 | 24.0 |
| CC(C)(C(=O)c1cccnc1)c1cccnc1 | 0.0 |
| C[C@@H]1O[C@@H](OC[C@H]2O[C@@H](OCCc3ccc(O)c(O)c3)[C@H](O)[C@@H](O[C@@H]3O[C@@H](C)[C@H](O)[C@@H](O)[C@H]3O)[C@@H]2OC(=O)/C=C/c2ccc(O)c(O)c2)[C@H](O)[C@H](O)[C@H]1O | 55.9 |
| CCOC(=O)N1c2ccc(C(F)(F)F)cc2[C@@H](N(Cc2cc(C(F)(F)F)cc(C(F)(F)F)c2)c2ncc(OCCCC(=O)O)cn2)C[C@H]1CC | 0.0 |
| C[N+]1(CC2CC2)CC[C@]23c4c5ccc(O)c4O[C@H]2C(=O)CC[C@@]3(O)[C@H]1C5.[Br-] | 0.0 |
| N=C(N)c1ccc2cc(OC(=O)c3ccc(NC4=NCCN4)cc3)ccc2c1 | 0.0 |
| C=CC(=O)Nc1cc(Nc2nccc(-c3cn(C4CC4)c4ccccc34)n2)c(OC)cc1N(C)CCN(C)C.CS(=O)(=O)O | 3.4 |
| CCCC(=O)Nc1ccc(OCC(O)CNCCc2ccc(OC)c(OC)c2)c(-c2ccno2)c1 | 56.1 |
| O=C(NN=Cc1cc([N+](=O)[O-])ccc1O)c1ccc(O)cc1O | 39.0 |
| COc1cc2c(cc1OC)[C@@H]1Cc3ccc(OC)c(OC)c3C[N@@+]1([O-])CC2 | 69.2 |
| CC(=O)Nc1ccc(N2C(=O)C(=Cc3ccc(Cl)cc3)C=C2c2ccccc2)cc1 | 49.9 |
| C[C@@H](CO)NC(=O)c1cc(-c2ccc(Cl)cc2)nn(-c2cnn(C)c2)c1=O | 68.7 |
| Nc1ncnc2n[nH]nc12 | 0.0 |
| Fc1cc(F)c2c(c1)[C@H]1C=CC[C@H]1C(c1cccnc1)N2 | 69.2 |
| COc1cccc2c1c(O)c(C(=O)N(C)c1ccc(C(F)(F)F)cc1)c(=O)n2C | 63.8 |
| COc1ccc(CNCc2cccc3ccccc23)cc1.Cl | 24.7 |
| Cc1cc(O)c(-c2cc(O)c(C)cc2O)cc1O | 0.0 |
| C#Cc1cccc(Nc2ncnc3cc(OCCOC)c(OCCO)cc23)c1.Cl | 43.6 |
| O=C(Cc1c[nH]c2ccccc12)N[C@@H](Cc1c[nH]c2ccccc12)C(=O)O | 0.0 |
| CC[C@H](C)[C@@H]([C@@H](CC(=O)N1CCC[C@H]1[C@H](OC)[C@@H](C)C(=O)N[C@@H](Cc1ccccc1)c1nccs1)OC)N(C)C(=O)[C@@H](NC(=O)[C@@H](NC)C(C)C)C(C)C | 81.1* |
| Cc1ccc(S(=O)(=O)NC(=O)N[C@H]2[C@H]3CC[C@@](C)([C@H]2O)C3(C)C)cc1 | 8.2 |
| CCC(C)n1ncn(-c2ccc(N3CCN(c4ccc(OC[C@H]5CO[C@](Cn6cncn6)(c6ccc(Cl)cc6Cl)O5)cc4)CC3)cc2)c1=O | 25.2 |
| COc1cc(N2CCC(O)CC2)ccc1Nc1nc(Nc2ccccc2S(=O)(=O)C(C)C)c2[nH]cnc2n1 | 39.9 |
| O=C(O)c1ccc(/C=C2\SC(=S)N(Cc3cccc(C(F)(F)F)c3)C2=O)cc1 | 23.6 |
| N#Cc1cccnc1N1CCN(C(=O)c2cccc(Cc3n[nH]c(=O)c4ccccc34)c2)CC1 | 0.0 |
| CNS(=O)(=O)c1ccccc1Nc1nc(Nc2ccc(N3CCN(C)CC3)cc2OC)ncc1Br | 0.0 |
| Cc1nc2c(=O)n(C)c(=O)nc-2n(C)n1 | 11.6 |
| Cc1ccnn1-c1ccc(C(=O)N2CCN(S(=O)(=O)c3ccc(Cl)c(C(F)(F)F)c3)CC2)cc1 | 2.9 |
| CCc1ccc(NC(=O)Nc2c[nH]c3ccccc23)cc1 | 0.0 |
| CC(C(=O)O)c1ccc(C(=O)c2cccs2)cc1 | 78.3* |
| CCS(=O)(=O)N1CC(CC#N)(n2cc(-c3ncnc4[nH]ccc34)cn2)C1 | 8.4 |
| CCCc1c(-c2ccccc2)[nH]n(-c2ccccn2)c1=O.Cl | 0.0 |
| COc1ccc(N2C(=O)/C(=C\c3ccc([N+](=O)[O-])s3)SC2=S)cc1 | 0.0 |
| NC(=O)c1[nH]cc(-c2ccncc2)c1C(F)(F)F | 3.3 |
| CC1=C(O)C(=O)C=C2C1=CC=C1[C@@]2(C)CC[C@@]2(C)[C@@H]3C[C@](C)(C(=O)O)CC[C@]3(C)CC[C@]12C | 0.0 |
| C[C@H]1O[C@H](OC2[C@@H](O)[C@@H](O)C(O)[C@H](O)[C@H]2O)[C@@H](N)C[C@@H]1N=C(N)C(=O)O.Cl.O | 64.0 |
| Cl.NC1CCN(c2nc3c(cc2F)c(=O)c(C(=O)O)cn3-c2ccc(F)cc2F)C1 | 0.0 |
| CCCCCCCCCCCCCCCCCCCC(=O)OC | 0.0 |
| OC1c2ccccc2-c2ccccc21 | 67.5 |
| CC(C)Cc1ccc([C@@H](C)C(=O)O)cc1 | 15.2 |
| O=C(O)CSc1ncnc2c(C3CC3)c(Cl)sc12 | 0.0 |
| COc1cccc(CNc2ccc(S(=O)(=O)Nc3nccs3)cc2)c1O | 0.0 |
| CC(=O)OC(C)(C)/C=C/C(=O)[C@](C)(O)[C@H]1[C@H](O)C[C@@]2(C)[C@@H]3CC=C4[C@@H](C=C(O)C(=O)C4(C)C)[C@]3(C)C(=O)C[C@]12C | 0.0 |
| N[C@H](Cc1cnc[nH]1)C(=O)O | 0.0 |
| CCN(CCCCOc1ccc(/C=C/C(=O)N2CCc3ccccc3C2)cc1OC)Cc1ccccc1 | 23.3 |
| CC(C)COCC(CN(Cc1ccccc1)c1ccccc1)N1CCCC1.Cl | 25.8 |
| Cc1cc2c(C(C)C)c(O)c(O)c(C=O)c2c(O)c1-c1c(C)cc2c(C(C)C)c(O)c(O)c(C=O)c2c1O | 37.4 |
| C[C@H](NC(=O)N1CCc2cccnc2[C@H]1c1ccc(C(F)(F)F)cc1)C(F)(F)F | 0.0 |
| CC(=O)Nc1c(F)cc(C(=O)NC2CCC(O)CC2)cc1O[C@@H](C)c1ccccc1 | 0.0 |
| COc1cc2c3c(n(CCCn4ccnc4)c(=O)c2cc1OC)-c1cc2c(cc1C3=O)OCO2 | 0.0 |
| Nc1nc2c(c(=O)[nH]1)C[C@@H](CCc1ccc(C(=O)N[C@@H](CCC(=O)O)C(=O)O)cc1)CN2 | 0.0 |
| NC(=O)c1ncc[nH]c1=O | 65.8 |
| O=S(=O)(Cc1ccccc1)N1C=Cc2ccccc2C1c1c[nH]c2ccccc12 | 28.4 |
| N#Cc1ccccc1OCC(O)CNCCNC(=O)Nc1ccccc1 | 0.0 |
| CCS(=O)(=O)c1cccc(-c2cc(C(=O)NC3CCN(C)CC3)c(C)c3[nH]c4ncc(C)cc4c23)c1 | 59.0 |
| NS(=O)(=O)c1ccc(NC(=O)Nc2ccc(F)cc2)cc1 | 49.8 |
| COc1ccc(CN(CCN(C)C)c2ncccn2)cc1 | 74.7* |
| COc1cc([C@@H]2Oc3c(O)cc([C@H]4Oc5cc(O)cc(O)c5C(=O)[C@@H]4O)cc3[C@H]2CO)ccc1O | 42.3 |
| CC(C)(C)CN(C(=O)CCl)C1CCS(=O)(=O)C1 | 13.3 |
| Cl.Clc1cccc(-c2nnnn2Cc2cccnc2)c1Cl | 0.5 |
| COc1ccc2c(c1O)-c1c(O)c(OC)cc3c1[C@H](C2)[N+](C)(C)CC3.[Cl-] | 67.7 |
| Cc1ncc(CNC(=O)N(CCCl)N=O)c(N)n1.Cl | 79.4* |
| CCC[C@@H]([C@@H](CC(C)C)C(=O)N[C@@H](CCCCNC(=O)OCc1ccccc1)C(=O)Nc1nccs1)N(O)C=O | 0.0 |
| CNC(=O)[C@@H](NC(=O)[C@H](CC(C)C)[C@H](O)C(=O)NO)C(C)(C)C | 9.2 |
| CN(C)C/C=C/C(=O)Nc1ccc(C(=O)N2CCC[C@@H](Nc3ncc(Cl)c(-c4c[nH]c5ccccc45)n3)C2)cc1 | 27.0 |
| CCCS(=O)(=O)Nc1ccc(F)c(C(=O)c2c[nH]c3ncc(Cl)cc23)c1F | 0.0 |
| Cc1ccc(C(=O)Nc2cccc(C(F)(F)F)c2)cc1-c1ccc2c(-c3cnn(C4CC4)c3)n[nH]c2c1 | 79.9* |